test: in vitro; details: mouse, liver microsomes

Structure (SMILES)	remaining at 0.5 h [%]
Nc1nccc(-c2c[nH]c3ccc(C#CCN4CCOCC4)cc23)n1	29
CC(O)C#Cc1ccc2[nH]cc(-c3ccnc(N)n3)c2c1 (stereo unspecified)	70
CN(C)Cc1ccc(-c2ccc3[nH]cc(-c4ccnc(N)n4)c3c2)cc1	32
CC(C)(O)C#Cc1ccc2[nH]cc(-c3ccnc(N)n3)c2c1	82
CCC(C)(O)C#Cc1ccc2[nH]nc(-c3ccnc(N)n3)c2c1 (stereo unspecified)	57
CC(O)C#Cc1ccc2[nH]nc(-c3ccnc(N)n3)c2c1 (stereo unspecified)	53
CC(=O)NCC#Cc1ccc2[nH]cc(-c3ccnc(N)n3)c2c1	78

More lines, now with the values ahead:

remaining at 0.5 h [%]	Structure (SMILES)
39	CN(C)CCC#Cc1ccc2[nH]cc(-c3ccnc(N)n3)c2c1
45	CCC(C)(O)C#Cc1ccc2[nH]c(C(C)(C)C)c(-c3ccnc(N)n3)c2c1 (stereo unspecified)
39	CC(C#Cc1ccc2[nH]cc(-c3ccnc(N)n3)c2c1)N(C)C (stereo unspecified)
46	CN(C)CC#Cc1ccc2[nH]c(C(C)(C)C)c(-c3ccnc(N)n3)c2c1
48	CC(=O)N(C)CC#Cc1ccc2[nH]cc(-c3ccnc(N)n3)c2c1
76	CC(C)(O)C#Cc1ccc2[nH]c(C(C)(C)C)c(-c3ccnc(N)n3)c2c1
69	CC(O)C#Cc1ccc2[nH]c(C(C)(C)C)c(-c3ccnc(N)n3)c2c1 (stereo unspecified)
2.3	CN(C)CC#Cc1ccc2[nH]cc(-c3ccncn3)c2c1
4.5	Cc1[nH]c2ccc(C#CCN(C)C)cc2c1-c1ccnc(N)n1

— ChEMBL document CHEMBL6096726, “Development of a Second-Generation, In Vivo Chemical Probe for PIKfyve” (J Med Chem, 2025)
